Assay results from article PMC4128710 (Biochemical pharmacology, 2014).

Legend:
mouse A2BAR = assay: β-Arrestin2 translocation in PathHunter CHO cells; conditions: β-Arrestin versus cAMP reference pathway
A2BAR [1] = target: T1, A2BAR (Homo sapiens, UniProt P29275); assay: cAMP accumulation in T24 cells endogenously expressing the A2BAR; conditions: NECA = 100%
T1 sequence (P29275 1-332): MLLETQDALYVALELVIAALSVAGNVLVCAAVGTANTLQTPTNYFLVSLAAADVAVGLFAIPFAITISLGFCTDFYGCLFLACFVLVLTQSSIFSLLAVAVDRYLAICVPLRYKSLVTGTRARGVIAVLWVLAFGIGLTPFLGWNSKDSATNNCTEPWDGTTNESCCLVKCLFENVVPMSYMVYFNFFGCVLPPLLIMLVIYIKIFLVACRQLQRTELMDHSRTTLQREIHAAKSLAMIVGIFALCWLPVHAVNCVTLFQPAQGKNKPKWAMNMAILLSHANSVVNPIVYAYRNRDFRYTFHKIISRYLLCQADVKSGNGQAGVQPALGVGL

A2BAR [2] = target: T1, A2BAR; assay: Intracellular calcium mobilization in T24 cells
A2BAR [3] = target: T1, A2BAR; assay: Intracellular calcium mobilization in HEK293 cells; conditions: endogenous A2BAR
A2BAR [4] = target: T1, A2BAR; assay: Intracellular calcium mobilization in HEK293 cells overexpressing the A2BAR

`CCNC(=O)[C@H]1O[C@@H](n2cnc3c(N)ncnc32)[C@H](O)[C@@H]1O` [NECA, adenosine-5′-N-ethyluronamide] was tested, and the “ΔΔlog (τ/KA)” value (mouse A2BAR) was 0.00.
With `C[C@H](Cc1ccccc1)Nc1ncnc2c1ncn2[C@@H]1O[C@H](CO)[C@@H](O)[C@H]1O` [R-PIA, R-N^6-(phenylisopropyl)adenosine] the “Max effect cAMP (% of effect of NECA)” value (A2BAR [1]) was 68.6 ±7.1%, the “Max effect Calcium (% of effect of NECA)” value (A2BAR [2]) was 9.6 ±4.1% and the “Max effect Calcium (% of effect of NECA)” value (A2BAR [3]) was 0.6 ±1.4%. For the same compound, the “Max effect Calcium (% of effect of NECA)” value (A2BAR [4]) was 18.2 ±4.9%.
